# Source: ChEMBL document CHEMBL1137012, “Structural optimization and biological evaluation of 2-substituted 5-hydroxyindole-3-carboxylates as potent inhibitors of human 5-lipoxygenase” (J Med Chem, 2009)
# What was measured:
# [1] = biological target: T1, Polyunsaturated fatty acid 5-lipoxygenase (Homo sapiens, UniProt P09917); assay: Inhibition of human recombinant 5-lipoxygenase expressed in Escherichia coli assessed as 5LO product formation by cell free assay
# T1 sequence (P09917 whole entry): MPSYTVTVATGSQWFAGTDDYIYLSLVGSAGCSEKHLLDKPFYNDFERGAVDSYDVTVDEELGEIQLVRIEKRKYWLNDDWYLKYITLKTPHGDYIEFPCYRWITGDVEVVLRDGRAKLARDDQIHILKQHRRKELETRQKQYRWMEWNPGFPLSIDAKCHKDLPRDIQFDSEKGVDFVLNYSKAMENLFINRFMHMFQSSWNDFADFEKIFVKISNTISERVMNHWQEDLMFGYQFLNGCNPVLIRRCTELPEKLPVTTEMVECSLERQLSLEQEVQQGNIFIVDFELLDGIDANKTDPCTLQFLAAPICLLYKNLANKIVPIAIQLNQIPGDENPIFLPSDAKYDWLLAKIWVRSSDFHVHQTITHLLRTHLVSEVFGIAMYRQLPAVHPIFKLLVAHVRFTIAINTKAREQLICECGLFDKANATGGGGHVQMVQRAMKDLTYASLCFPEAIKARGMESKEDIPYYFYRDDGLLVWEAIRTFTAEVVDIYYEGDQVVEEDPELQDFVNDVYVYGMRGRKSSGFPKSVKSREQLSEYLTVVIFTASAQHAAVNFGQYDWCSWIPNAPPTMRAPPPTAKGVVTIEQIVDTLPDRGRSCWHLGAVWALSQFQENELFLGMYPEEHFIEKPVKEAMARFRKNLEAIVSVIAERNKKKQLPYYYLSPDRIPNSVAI
# [2] = biological target: T1, Polyunsaturated fatty acid 5-lipoxygenase; assay: Inhibition of 5-lipoxygenase in A-23817-challenged human neutrophils assessed as 5LO product formation by intact cell based assay in presence of exogenous arachidonic acid
SMILES,IC50 [1],IC50 [2]
CCOC(=O)c1c(Cc2ccc(Cl)cc2)n(Cc2ccccc2)c2c1cc(O)c1ccccc12,650 nM,1800 nM
CC(=O)N(O)C(=O)/C=C/c1cccc(Oc2ccccc2)c1,38 nM,160 nM
COC(=O)c1c(Nc2cccc(F)c2)[nH]c2ccccc12,13400 nM,7900 nM
C=CCNc1[nH]c2ccccc2c1C(=O)OC,> 30000 nM,> 30000 nM
C=CCN(CC=C)c1[nH]c2ccccc2c1C(=O)OC,6900 nM,12500 nM
CCOC(=O)c1c(Cc2cccc(Cl)c2)n(C)c2c1cc(OC)c1ccccc12,> 10000 nM,> 30000 nM
CCOC(=O)c1c(Cc2ccc(C(F)(F)F)cc2)[nH]c2c1cc(O)c1ccccc12,250 nM,1700 nM

# Continued, values first:
IC50 [1],IC50 [2],SMILES
> 30000 nM,> 30000 nM,CCOC(=O)c1c(Cc2cccc(Cl)c2)[nH]c2c1cc(-c1ccccc1)c1ccccc12
330 nM,2800 nM,CCOC(=O)c1c(Cc2cccc(Cl)c2)[nH]c2cc(-c3ccc(-c4ccccc4)cc3)c(O)cc12
49 nM,2800 nM,CCOC(=O)c1c(CCc2ccc(Cl)cc2)[nH]c2c1cc(O)c1ccccc12
140 nM,340 nM,CCOC(=O)c1c(Cc2cccc(F)c2)[nH]c2c1cc(O)c1ccccc12
31 nM,490 nM,CCOC(=O)c1c(CCc2cccc(Cl)c2)[nH]c2c1cc(O)c1ccccc12
